Assay results reported in article PMC5548612 (Drug and alcohol dependence, 2017).

Chains of the proteins cited; added tags and fusions are not shown.
UniProt P28223, whole entry: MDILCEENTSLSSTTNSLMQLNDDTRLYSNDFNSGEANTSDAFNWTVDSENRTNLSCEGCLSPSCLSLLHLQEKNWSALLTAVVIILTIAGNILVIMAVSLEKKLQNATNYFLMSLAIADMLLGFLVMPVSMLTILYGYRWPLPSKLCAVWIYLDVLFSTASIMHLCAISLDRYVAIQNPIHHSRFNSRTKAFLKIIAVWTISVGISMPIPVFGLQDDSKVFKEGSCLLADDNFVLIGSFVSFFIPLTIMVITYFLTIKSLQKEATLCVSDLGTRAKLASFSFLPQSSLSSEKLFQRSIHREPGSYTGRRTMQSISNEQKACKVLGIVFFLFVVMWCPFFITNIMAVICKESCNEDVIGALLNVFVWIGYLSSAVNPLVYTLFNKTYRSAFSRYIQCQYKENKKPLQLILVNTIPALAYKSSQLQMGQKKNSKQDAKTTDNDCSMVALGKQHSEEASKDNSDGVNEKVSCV

Biological target: 5-HT2A receptor (Homo sapiens, UniProt P28223)
Assay: biochemical

CN[C@@H](C)C(=O)c1ccc(C)cc1 [S-MEPH, S-mephedrone]
Ki: 1300 nM
